From ChEMBL document CHEMBL1135768, “Design, synthesis, and SAR of tachykinin antagonists: modulation of balance in NK(1)/NK(2) receptor antagonist activity” (J Med Chem, 2002)

These compounds were tested on Substance-P receptor (Oryctolagus cuniculus) (assay: Tested for the binding affinity towards tachykinin receptor 1 (NK1) in rabbit pulmonary artery tissue).
Work on `CN(C[C@@H](CCN1CCC(c2ccccc2[S@+](C)[O-])CC1)c1ccc(Cl)c(Cl)c1)C(=O)c1cc(C#N)cc2ccccc12` yielded a pKB of 8.98.
Compound `CN(C[C@@H](CCN1CCC(c2ccccc2[S+](C)[O-])CC1)c1ccc(Cl)c(Cl)c1)C(=O)c1cc(C#N)cc2ccccc12` (mixture of isomers) has a pKB of 8.43.
In the case of `COc1ccc(C2CCN(CC[C@H](CN(C)C(=O)c3cc(C#N)cc4ccccc34)c3ccc(Cl)c(Cl)c3)CC2)c([S@+](C)[O-])c1`, the pKB is reported as 8.2.
